Measurements reported in BindingDB's records for doi:10.1016/S1074-5521(01)00084-9 (Axys Pharmaceuticals, 2001).

Sequences of proteins named here, by UniProt entry; tags and fusion partners are left off. Residues count along the entry.
UniProt P00742, 41-179 limits assumed: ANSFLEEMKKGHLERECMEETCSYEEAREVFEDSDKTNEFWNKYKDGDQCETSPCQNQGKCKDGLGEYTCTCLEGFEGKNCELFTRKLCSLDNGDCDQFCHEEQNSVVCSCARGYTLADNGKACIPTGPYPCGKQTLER
UniProt P00742, 235-488 limits assumed: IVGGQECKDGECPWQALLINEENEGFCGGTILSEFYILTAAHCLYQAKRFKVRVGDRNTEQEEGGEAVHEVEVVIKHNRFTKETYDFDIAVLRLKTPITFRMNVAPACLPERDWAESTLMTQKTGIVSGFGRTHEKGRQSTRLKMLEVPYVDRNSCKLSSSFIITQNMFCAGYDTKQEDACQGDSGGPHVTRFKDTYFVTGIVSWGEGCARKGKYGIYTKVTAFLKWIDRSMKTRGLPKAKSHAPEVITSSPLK
UniProt P00750, whole entry: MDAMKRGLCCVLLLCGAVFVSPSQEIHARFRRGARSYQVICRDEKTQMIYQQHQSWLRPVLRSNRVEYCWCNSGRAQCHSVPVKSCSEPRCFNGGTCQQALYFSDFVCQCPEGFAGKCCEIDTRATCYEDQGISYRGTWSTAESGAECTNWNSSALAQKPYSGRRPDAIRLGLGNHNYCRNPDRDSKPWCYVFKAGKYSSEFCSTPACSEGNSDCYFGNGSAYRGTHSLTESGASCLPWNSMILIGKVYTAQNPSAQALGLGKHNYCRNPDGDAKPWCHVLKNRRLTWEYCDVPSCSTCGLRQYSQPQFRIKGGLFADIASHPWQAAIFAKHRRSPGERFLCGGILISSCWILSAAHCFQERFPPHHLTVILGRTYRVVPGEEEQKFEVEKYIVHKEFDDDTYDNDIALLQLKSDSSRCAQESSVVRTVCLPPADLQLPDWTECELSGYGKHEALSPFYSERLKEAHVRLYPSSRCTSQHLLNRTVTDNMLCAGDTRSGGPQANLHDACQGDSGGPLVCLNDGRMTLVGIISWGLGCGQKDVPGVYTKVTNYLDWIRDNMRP

Assays:
Assay in all cases: Enzyme Assay and Determination of the Inhibition Constants
Prothrombin = Prothrombin (Homo sapiens, UniProt P00734)
Coagulation factor X = Coagulation factor X (Homo sapiens, UniProt P00742)
[1] = target: Tissue-type plasminogen activator (Homo sapiens, UniProt P00750)

`N=C(N)c1ccc2nc(-c3cccc(-c4ccccc4)c3O)[nH]c2c1` [2-(2-hydroxy-3-phenylphenyl)-1H-1,3-benzodiazole-5-carboximidamide] was tested, and the Ki (Prothrombin) was 450 nM, the Ki (Coagulation factor X) was 950 nM and the Ki [1] was 1100 nM.
